# Screening data as filed in PubChem.
# Compounds with a hit are over-represented: about 1% of the library has one in this group of screens.
# C2C12 statin – protects C2C12 myotubes from simvastatin toxicity | rescue of ATP level, % at 7.49 µM | AID 602340 | ATP luminescence, 48 h; scaled: DMSO 0, geranylgeraniol control 100 | 0.78% of 330,000 active;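 active = mean ATP rescue above about 67%, or every replicate alone reaching that limit, limit read from the data, passing the limit was not always enough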;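 also: myotubes were challenged with 10 µM simvastatin during compound exposure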
# Cneo AK release – causes C. neoformans cell lysis. 0.2% of 360,000 active. lysis activity, % at 15 µM. adenylate kinase release luminescence, 4 h; normalised: neutral wells 0, clomiphene wells 100;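 active = mean lysis activity across replicates of at least 80%, whatever share of replicates individually reach that level; inactive = mean lysis activity below 80%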
#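 Test system: log-phase Cryptococcus neoformans yeast cells; Quantity: yeast cell density of 5 × 10^6 cells/mL; Buffer or medium: YPD; Doses: single compound concentration per well; Timing: 4 h at 37 °C static, read 1 h later; Measured by: AK luminescence; Read-out basis: lysis from increased AK signal; Control set: Clomiphene as positive control.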
# Rtt109 Vps75 – inhibitors of Candida albicans Rtt109/Vps75 histone acetyltransferase | Q5AAJ8 | purified Rtt109/Vps75, ThioGlo CoA-SH fluorescence, 4 h | inhibition, % at 34.9 µM | 0.16% of 330,000 active | AID 540336;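 active = inhibition of at least 50% in every replicate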
# Yeast UUG start-1 – modulators of start codon recognition fidelity in yeast; S. cerevisiae UUG-firefly luciferase reporter, luminescence/redox ratio; activity score, % at 18.7 µM; hit rate 0.13% among 350,000; AID 602363;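 active = replicate mean at a twofold rise or more, about +100% in these data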;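 note: firefly luciferase made from a UUG start codon reports start codon fidelity; reporter light over untreated wells divided by growth signal over untreated wells; some hits fall short of that in this replicate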
# CDK5 inh – inhibitors of human CDK5/p35 kinase; 0.01% of 330,000 active; inhibition, % at 10 µM; Q00535+Q15078; Recombinant CDK5/p35, ADP-Glo luminescence, 60 min;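 active = highest replicate inhibition of at least 50% and at least 75% of replicates reaching 50%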;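 also: plate controls were DMSO neutral control for no effect and GW8510 at 10 µM for full effect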
# Yeast UUG start-2 – yeast start codon fidelity modulation; shares compounds with Yeast UUG start-1; S. cerevisiae UUG-start firefly luciferase, luminescence, 4 h; 100% means double the DMSO signal; activation, % at 38 µM; 540 tested, under 10 active;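 active = signal increase whose fitted curve reaches an absolute level of 40 at a concentration under 10 µM; inactive = activity opposite to the expected increase, or the rest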
# * hit, by the source's call; i = inactive; / = not tested or not shown; ! = not confirmed by another sample.
SMILES,C2C12 statin,Cneo AK release,Rtt109 Vps75,Yeast UUG start-1,CDK5 inh,Yeast UUG start-2
COC(=O)c1c2oc(c1C(=O)OC)C(=O)N[C@@H](Cc1ccccc1)Cn1cc(nn1)CNC(=O)[C@@H](Cc1ccccc1)NC(=O)N[C@@H](CO)CC2,/,21,/,116*,/,i
COc1ccc(Nc2nc3ccccc3n2C)cc1,-3,1,-11,0,2,-13
C[C@@H]1CN([C@H](C)CO)S(=O)(=O)c2ccc(-c3ccccc3)cc2O[C@@H]1CN(C)S(C)(=O)=O,-12,4,/,8,/,/
O=C(Nc1ccc(Nc2ccccc2)cc1)c1ccco1,-47,-15,16,610*,0,-14
O=C(Nc1ccc(NC(=O)c2ccco2)cc1)c1ccco1,-11,-1,4,-6,-1,/
CCCN(C)C[C@@H]1Oc2cc(C3=CCCCC3)ccc2S(=O)(=O)N([C@@H](C)CO)C[C@@H]1C,-61,2,/,156*,/,i
CCCN(C)C[C@H]1Oc2cc(/C=C/c3ccccc3)ccc2S(=O)(=O)N([C@H](C)CO)C[C@@H]1C,0,1,/,10,/,/
CCCN(C)C[C@@H]1Oc2cc(C3=CCCCC3)ccc2S(=O)(=O)N([C@@H](C)CO)C[C@H]1C,-89,/,/,/,/,/
C/C=C/c1ccc2c(c1)O[C@@H](CN(C)CCC)[C@@H](C)CN([C@H](C)CO)S2(=O)=O,0,-4,/,85*,/,i
C/C=C/c1ccc2c(c1)O[C@H](CN(C)C(=O)C1CCCCC1)[C@H](C)CN([C@H](C)CO)S2(=O)=O,7,-3,/,201*,/,i
C/C=C/c1ccc2c(c1)O[C@H](CN(C)Cc1ccc(C(=O)O)cc1)[C@@H](C)CN([C@H](C)CO)S2(=O)=O,-5,-5,/,7,/,/
C/C=C/c1ccc2c(c1)O[C@H](CN(C)C(=O)C1CCC1)[C@H](C)CN([C@H](C)CO)S2(=O)=O,-13,/,/,/,/,/
C/C=C/c1ccc2c(c1)O[C@H](CN(C)Cc1ccc(C(=O)O)cc1)[C@H](C)CN([C@H](C)CO)S2(=O)=O,-6,52,/,192*,/,i
CCOc1ccc(C(C)=O)cc1CSc1nc(C)cc(C)n1,-12,-1,15,213*,0,4
O=C(N[C@@H]1CC[C@H](CCNS(=O)(=O)c2cccc(Cl)c2)O[C@H]1CO)c1ccccc1,5,/,/,/,/,/
O=C(CSc1nnc2c(n1)[nH]c1ccccc12)OCc1ccccc1,/,-3,0,410*,-1,1
O=C(O)CSc1nnc2c(n1)[nH]c1ccccc12,/,/,5,/,0,/
O=C(C[C@@H]1C=C[C@@H](NS(=O)(=O)c2ccccc2F)[C@H](CO)O1)NCCCN1CCOCC1,-6,-3,/,/,/,/
COc1ccc(NC(=O)N(C)C[C@H]2OCCCC[C@H](C)Oc3ccc(NS(=O)(=O)c4ccc(C)cc4)cc3C(=O)N([C@@H](C)CO)C[C@@H]2C)cc1,/,7,/,-1,/,/
O=C(COC(=O)Cc1ccc(Cl)cc1)Nc1ccccc1F,/,/,0,/,2,/
O=C(COC(=O)Cc1ccc(Cl)cc1)Nc1c(F)cccc1F,-5,3,/,460*,0,-5
COc1ccc(S(=O)(=O)N2CCN(CCCOc3ccc(F)cc3)CC2)cc1OC,0,-1,8,303*,0,7
COc1ccc(S(=O)(=O)N2CCN(c3ccc(F)cc3)CC2)cc1OC,8,0,-2,4,-1,/
O=C(Cc1ccccc1)N1C[C@H]2[C@@H](c3ccccc31)[C@@H](CO)N2C(=O)C1CCOCC1,-7,-11,/,116*,/,i
CO[C@H]1CC[C@H]2CCOc3ccc(C#N)cc3C(=O)N(C)CCCC(=O)N(C)C[C@@H]1O2,-6,-1,/,/,/,/
CN(C)c1ccc(/C=C/c2ccc3ccccc3[n+]2C)cc1,-70,-4,29,127*,12,11
O=C1COc2ccccc2N1Cc1ccc(Cl)cc1,28,0,-14,167*,1,4
O=C(CN1C(=O)c2ccccc2S1(=O)=O)c1ccc(O)c(O)c1,/,1,3,165*,1,-5
O=C(CN1C(=O)c2ccccc2S1(=O)=O)c1ccc(F)c(F)c1,/,-2,-3,-29,-1,/
O=C(C[C@@H]1C[C@H]2c3cc(NC(=O)C4CCC4)ccc3O[C@H]2[C@H](CO)O1)NCC1CC1,-7,-6,/,104*,/,i
O=C(C[C@@H]1C[C@H]2c3cc(NC(=O)C4CCOCC4)ccc3O[C@H]2[C@@H](CO)O1)NC1CCCC1,-6,7,/,-1,/,/
O=C(C[C@H]1C[C@@H]2c3cc(NC(=O)C4CCOCC4)ccc3O[C@@H]2[C@H](CO)O1)NC1CCCC1,-5,7,/,102*,/,i
COCC(=O)Nc1ccc2c(c1)[C@@H]1C[C@H](CC(=O)NC3CCCCC3)O[C@H](CO)[C@@H]1O2,-1,53,/,107*,/,i
Cc1noc(C)c1NC(=O)NCC[C@@H]1CC[C@H](NC(=O)c2ccc(F)cc2)[C@H](CO)O1,0,0,/,/,/,/
CCOc1ccc(C(=O)NCC(C)C)cc1,/,1,-4,1,-2,/
CCOc1ccc(C(=O)NCC(C)NC(=O)c2ccc(OCC)cc2)cc1 (configuration not stated),14,0,1,109*,-3,10
Cc1nn(CC#N)c(=O)n1-c1ccccc1F,-2,-2,/,-19,3,/
Cc1ccc(-n2c(C)nn(CC#N)c2=O)cc1,4,-2,0,346*,0,-1
COCC(=O)Nc1ccc2c(c1)C(=O)N(C)C[C@H](OC)[C@@H](C)CN(Cc1ccccn1)[C@@H](C)CO2,-10,-7,/,/,/,/
COc1ccc(C(=O)c2cnc[nH]2)cc1,/,0,-9,171*,-5,6
COc1ccc(C(=O)c2cnc[nH]2)cc1OC,-14,1,-6,-20,2,/
CC(O)(C#CCN1CCCC1)c1ccccc1 (configuration not stated),-9,0,-4,5,-2,-5
OC(C#CCN1CCCC1)(c1ccccc1)c1cccc(F)c1 (configuration not stated),/,/,2,/,-1,12
CC(O)(C#CCN1CCCCC1)c1ccccc1 (configuration not stated),5,-2,1,-22,-1,/
C[C@H](CO)N1C[C@H](C)[C@@H](CN(C)Cc2cncnc2)Oc2ncc(/C=C/c3ccccc3)cc2C1=O,-56,-2,/,250*,/,i
COc1ccccc1-c1cnc2c(c1)C(=O)N([C@@H](C)CO)C[C@@H](C)[C@H](CN(C)C(=O)c1cccnc1)O2,5,89*!,/,200*!,/,i
C[C@@H]1CN([C@@H](C)CO)C(=O)c2cc(-c3cccnc3)cnc2O[C@H]1CN(C)C(=O)c1ccccc1F,-2,-2,/,166*,/,i

# Ordered by the number under Yeast UUG start-2 (rising): 4 of the compounds above.
Molecule | Yeast UUG start-2
CC(O)(C#CCN1CCCC1)c1ccccc1 (configuration not stated) | -5
Cc1ccc(-n2c(C)nn(CC#N)c2=O)cc1 | -1
COc1ccc(C(=O)c2cnc[nH]2)cc1 | 6
OC(C#CCN1CCCC1)(c1ccccc1)c1cccc(F)c1 (configuration not stated) | 12

# 3 compounds from above, ordered by formula weight, lowest first.
SMILES,C2C12 statin,Cneo AK release,Rtt109 Vps75,Yeast UUG start-1,CDK5 inh,Yeast UUG start-2
CC(O)(C#CCN1CCCCC1)c1ccccc1 (configuration not stated),5,-2,1,-22,-1,/
CCCN(C)C[C@@H]1Oc2cc(C3=CCCCC3)ccc2S(=O)(=O)N([C@@H](C)CO)C[C@@H]1C,-61,2,/,156*,/,i
CCCN(C)C[C@H]1Oc2cc(/C=C/c3ccccc3)ccc2S(=O)(=O)N([C@H](C)CO)C[C@@H]1C,0,1,/,10,/,/
